According to article PMC6062497 (Oncogene, 2018):

Biological target: T1, TRAIL-R2 (human (endogenous in SK-Mel-3 and …, UniProt O14763))
T1 construct: TRAIL-R2, death receptor on the surface of the melanoma cell line SK-Mel-3 and the colorectal cancer cell line HCT116; also called TNF-related apoptosis-inducing receptor 2; TRAIL DR
Test: equilibrium binding of Gaussia princeps luciferase fusion proteins to cells (luminescence); SK-Mel-3 cells in 24-well plates; increasing concentrations of the GpL fusion protein for 1 h at 37 °C; non-specific binding taken from cells pre-incubated with an excess of conventional TRAIL or conatumumab; one site specific binding model; isotonic and hypertonic conditions

- binding result: binds
B1: GpL-FLAG-conatumumab (antibody, V domains shown)
VH: QVQLQESGPGLVKPSQTLSLTCTVSGGSISSGDYFWSWIRQLPGKGLEWIGHIHNSGTTYYNPSLKSRVTISVDTSKKQFSLRLSSVTAADTAVYYCARDRGGDYYYGMDVWGQGTTVTVSS
VL: EIVLTQSPGTLSLSPGERATLSCRASQGISRSYLAWYQQKPGQAPSLLIYGASSRATGIPDRFSGSGSGTDFTLTISRLEPEDFAVYYCQQFGSSPWTFGQGTKVEIK
